## Yeast mating assay 1: variants of the scFv Ab-14

Values reported by Engelhart et al. 2022, doi:10.1038/s41597-022-01779-4 (FLAb copy).

Target peptide (SARS-CoV-2 spike, HR2 region): PDVDLGDISGINAS

Parent scFv Ab-14: VH joined to VL by a 15-residue (Gly4Ser)3 linker. Changes lie in the light chain CDRs alone.
VH: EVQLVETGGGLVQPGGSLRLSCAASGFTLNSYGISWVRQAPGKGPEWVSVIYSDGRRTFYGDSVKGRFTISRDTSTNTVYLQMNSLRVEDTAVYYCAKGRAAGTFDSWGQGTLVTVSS
VL: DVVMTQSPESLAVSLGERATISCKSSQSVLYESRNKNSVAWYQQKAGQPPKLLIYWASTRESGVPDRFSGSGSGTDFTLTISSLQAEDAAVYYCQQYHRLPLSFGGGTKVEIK

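Phage display of a naive human antibody library on the peptide gave the parent. The library (AAYL50) carries one to three amino acid substitutions per variant, with no insertions or deletions. The assay is AlphaSeq: two haploid yeast populations carry antibody and antigen on their surface. Binding brings cells together so that they mate, and sequencing counts the barcode pairs among the diploids. Each replicate has its own calibration line, from reference interactions of the BCL2 family. The assay was run in three technical replicates.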

Each variant is given by its three light chain CDRs, as the data file delimits them; those of the parent are KSSQSVLYESRNKNSVA, WASTRES, QQYHRLPLS.
Numbers give log10(Kd / nM), so 0 is 1 nM and 3 is 1 µM. Smaller is tighter.
The mean shown is taken over the replicates in which the pair was detected.
"no signal" marks a missing value. The strain was present, yet no cells mated with the target were sequenced in any replicate, which points to weak or no binding.
Nonspecific signal, from three strains lacking the peptide, appeared in 18% of pairings of library AAYL50, centred on 4.19 (5% of these signals below 2.99); values are not corrected for it.

CDR-L1	CDR-L2	CDR-L3	log10 Kd (nM), mean	detected
KLSQSVLYESRNKNSVA	CASTRES	QQYHRLPSS	0.02	3/3
KSSQSVLYESRNKNSVA	FASCREA	QQYHRLPLS	no signal	0/3
KSSQSYLYESRNKNIVA	WASTRES	NQYHRLPLS	3.32	2/3
KSSQSVLYESRNKNSVA	WASTRIS	QQYHRLPLN	2.19	3/3
KSSQSVLYESRNKNSVA	WASTRES	QTYLDLPLS	no signal	0/3
KSSQSVQYEVRNKNSVA	QASTRES	QQYHRLPLS	0.68	3/3
KSEQSVLYESRNKNSVW	NASTRES	QQYHRLPLS	3.08	1/3
KSSQSVLYDSRNKNFVA	PASTRES	QQYHRLPLS	no signal	0/3
KSSQSVLYMYRNKNSVA	WASTREG	QQYHRLPLS	4.89	2/3
KSSQSVCYESRNKNSVA	WASTRES	HQYHRLPGS	1.40	3/3
KSSQSVLYESLNKNSNA	WASTQES	QQYHRLPLS	3.82	1/3
KGSQSYLYESVNKNSVA	WASTRES	QQYHRLPLS	1.13	3/3
TSSQSVLYESRNKNSVA	WASTRML	QQYHRLPLS	1.54	3/3
KSWQSVLYESRNKNSWA	WASTRES	QQYHRLPLS	4.52	2/3
KSSQSVLYESRNKNSVD	WANTRES	QQYHRLPDS	5.34	3/3
KSSQSVLYESRNFNSMA	WASTRES	TQYHRLPLS	1.23	3/3
KSSQSVLIESINKNSVA	WASTRES	QQYHRLPLS	0.72	3/3
KCSDSVLYESRNKNSVA	WASTRES	QQYHRNPLS	no signal	0/3
KSSQSVLYWSRNKNSVA	NASTRES	QQYHRLDLS	0.67	3/3
KSSQSVLYESRNKNSVQ	WASTFES	QQYHRFPLS	4.57	2/3
KSSQSVLYESRNKGDVA	WASTRES	NQYHRLPLS	no signal	0/3
KSSCSVLYESRNKNSVA	WASTRES	QHYHRGPLS	3.57	3/3
KSSQSVLYESRNKNIVA	WASTRES	QQYHCLPLY	no signal	0/3
KSSQSVLYLSRNENSVA	WASTRES	QQYHRLPLG	3.35	2/3
KSSQSVLYESRNKNSVA	WKSTRES	QQYHRWPLS	no signal	0/3
KSSQSVPYESRHKNSVA	SASTRES	QQYHRLPLS	0.50	3/3
KSSQSVLYESRNKNFVA	WASTRES	QQYHILPLK	no signal	0/3
KSSQSVLYESRNKNMVA	WASTRES	DQYHRLGLS	no signal	0/3
KSSQVVLYESRPKNSVA	WASTRES	QQYHGLPLS	3.68	1/3
SSSQSVLFESRNKNSVA	WASCRES	QQYHRLPLS	2.04	3/3
KSSQSVLYESGNKNSVA	WAWTRES	HQYHRLPLS	1.25	3/3
KESQSVLYESRNKNSVA	WASTRES	QVYHILPLS	1.73	3/3
KSSQRHLYESKNKNSVA	WASTRES	QQYHRLPLS	2.33	3/3
KSSQSVKYESRNKISVA	WASTRES	QQYHRLPPS	no signal	0/3
KSSQSVLYESTNKPSVA	WASTREI	QQYHRLPLS	no signal	0/3
KSSQSVLYESRNKNSVA	WMSTRFS	QQSHRLPLS	2.42	3/3
KSNQSVLYESRNKNSVA	WATTTES	QQYHRLPLS	no signal	0/3
KSSQSVLYDSRNKNSVA	EDSTRES	QQYHRLPLS	0.15	3/3
KSSQSVLYESRNKNSVA	WASTRAS	QFYHRLPLK	no signal	0/3
KSSQSVLYESRNKLSVA	WASTSES	QQYHRDPLS	no signal	0/3
KKSGSVMYESRNKNSVA	WASTRES	QQYHRLPLS	2.03	3/3
KSSPSVLYESRNKNSVA	HWSTRES	QQYHRLPLS	3.08	2/3
KSSSSVLYESNNKNSIA	WASTRES	QQYHRLPLS	0.56	3/3
KSSQSVLYESRNKNSVA	EADTRES	QQYHRLPLS	0.02	3/3
KSSYMVLYESRCKNSVA	WASTRES	QQYHRLPLS	2.39	1/3
KSSQSVLYESRAKNHVA	WASTRLS	QQYHRLPLS	2.74	3/3
KSSRAVLYESRNKNSVA	WASTRES	QQYHRLHLS	4.91	2/3
KSSQSVLYESRNNNWVA	WASTRES	QQYHRWPLS	no signal	0/3
KSYQSVLYESRNKNSNA	WASTRES	QMYHRLPLS	3.46	1/3
KSSQSVLYESRNKNPMA	WASTRYS	QQYHRLPLS	2.09	3/3
KSSQSVLYMSRNKNSGA	WASTRWS	QQYHRLPLS	no signal	0/3
KSSQSVLYESRNCNSVA	KASWRES	QQYHRLPLS	1.07	3/3
KSSQSVLYESRNKNSVA	NASVRPS	QQYHRLPLS	0.53	3/3
KSSQSVLYESRWRNSVA	WASTRES	QQYHRLCLS	1.72	3/3
KSYQTVLYESRNKNSVA	WASTRES	QQYHRLPLS	2.09	3/3
KSSQSVLYESRHGNSVA	WASTRES	NQYHRLPLS	no signal	0/3
KSSQDVLMESRNKNSVA	WASTSES	QQYHRLPLS	4.73	2/3
KQPQSVLYESRNKNSVA	WASTRES	QNYHRLPLS	0.89	3/3
KSSQSVWYESRNKVSVA	YASTRES	QQYHRLPLS	1.48	3/3
NSSQSVLYHSRNKNSVH	WASTRES	QQYHRLPLS	5.05	2/3
KSHQSYLYESRNKNSVA	WASFRES	QQYHRLPLS	1.41	2/3
KSSQSVLYWSRNKNSVA	WASRRES	QQYHTLPLS	no signal	0/3
KASQSVLYESRNHNSVA	WASTRES	TQYHRLPLS	no signal	0/3
KSSQSVLYESRNKNSVR	WGSTRES	QMYHRLPLS	no signal	0/3
KSSQSVLPESNNKNSVA	WASTRES	QQYHRLPLT	0.47	3/3
KSSQSALYESRNKNSVA	WMSTRES	QQYHILPLS	2.74	3/3
KSSQSVLLESRNKNSHA	WAQTRES	QQYHRLPLS	no signal	0/3
KSSQSVLWESRNKNSVA	WASTRES	QQYHRRPLS	no signal	0/3
KSSQSVLYESRTKNSVA	WASTRES	QQYHRSPFS	no signal	0/3

Extract of 5 entries:

| CDR-L1 | CDR-L2 | CDR-L3 | log10 Kd (nM), mean | detected |
|---|---|---|---|---|
| KSSQSVLLESRNKNSHA | WAQTRES | QQYHRLPLS | no signal | 0/3 |
| KSSQSVLYESRTKNSVA | WASTRES | QQYHRSPFS | no signal | 0/3 |
| KSSQSVLYESRNKNSVA | EADTRES | QQYHRLPLS | 0.02 | 3/3 |
| KSSQSVLYWSRNKNSVA | NASTRES | QQYHRLDLS | 0.67 | 3/3 |
| KSSQSVLWESRNKNSVA | WASTRES | QQYHRRPLS | no signal | 0/3 |